Laboratory results as given in ChEMBL document CHEMBL1146651, “Selective urokinase-type plasminogen activator (uPA) inhibitors. Part 3: 1-isoquinolinylguanidines” (Bioorg Med Chem Lett, 2004).

molecular target: Urokinase-type plasminogen activator (Homo sapiens, UniProt P00749)

| Structure (SMILES) | Ki |
| --- | --- |
| NC(N)=Nc1nccc2cc(Br)ccc12 | 2340 nM |
| NC(N)=Nc1nccc2c(OCc3ccccc3)cccc12 | 4800 nM |
| NC(N)=Nc1cc2ccccc2cn1 | 9300 nM |
| Cc1cnc(N=C(N)N)c2ccccc12 | 1400 nM |
| N=C(N)Nc1nccc2ccc(-c3ccc4c(c3)OCO4)cc12 | 340 nM |
| NC(N)=Nc1nccc2ccc(Br)cc12 | 800 nM |
| N=C(N)Nc1nccc2ccc(C(=O)O)cc12 | 1000 nM |
| N=C(N)Nc1ncc(Br)c2ccccc12 | 580 nM |
| COc1ccc(-c2ccc3c(Cl)cnc(N=C(N)N)c3c2)cc1 | 200 nM |
